Source: PubChem BioAssay (Broad Institute)
E-selectin induc: induces E-selectin expression in human endothelial cells. activation, % at 7.58 µM. hit rate 0.37% among 260,000. HUVEC E-selectin immunofluorescence imaging; normalized: neutral wells 0, TNF-alpha wells 100. AID 686992. P16581;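 active = mean E-selectin-positive cell signal at least 10% of the positive control, reached in at least 60% of replicates, without over 20% cell loss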
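Material: HUVEC primary endothelial cells; Amount: 3,000 cells per well; Dosing: single concentration; Medium: EGM-2 growth medium on 0.1% gelatin-coated wells; Read-out basis: percent E-selectin-positive cells; Signal: immunofluorescence imaging; Control set: TNF-alpha, DMSO.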
DENV2 CPE: inhibitors of DENV2 cytopathic effect. DENV2-infected cells, cytopathic effect rescue, plate reader. CPE inhibition, % at 9.99 µM. hit rate 1.7% among 350,000. AID 651640; in the data active = CPE inhibition above about 20%, passing the limit was not always enough; tested in BHK-21 cells;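 note: 0% = median of neutral control wells and 100% = median of positive control wells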
Yeast UUG start: modulators of start codon recognition fidelity in yeast. S. cerevisiae UUG-firefly luciferase reporter, luminescence/redox ratio. activity score, % at 18.7 µM. 0.13% of 350,000 active. AID 602363;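 active = replicate mean at a twofold rise or more, about +100% in these data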;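 also: firefly luciferase made from a UUG start codon reports start codon fidelity; reporter light over untreated wells divided by growth signal over untreated wells; some hits fall short of that in this replicate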
Cneo AK release: Cryptococcus neoformans lysis via adenylate kinase release; C. neoformans lysis, adenylate kinase release luminescence, 4 h; normalised: neutral wells 0, clomiphene wells 100; lysis activity, % at 15 µM; hit rate 0.2% among 360,000; AID 651654;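 active = mean lysis activity across replicates of at least 80%, whatever share of replicates individually reach that level; inactive = mean lysis activity below 80%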
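Signal: Adenylate kinase release luminescence | Assay system: Log-phase Cryptococcus neoformans yeast cells | Input: Cells at 5 × 10^6 per mL | Buffer or medium: Fresh YPD growth medium | Compound: Single dose | Schedule: Static 4 h at 37 °C with compound, 1 h detection | Controls: Clomiphene | Read-out: Luminescence rise reflecting yeast cell lysis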
Starred values were filed as active, the others as inactive; . = no result. In the library only some 1.8% were active in any assay of this set; here they are far more common.

item | Structure | E-selectin induc | DENV2 CPE
1 | C[C@H]1CN([C@@H](C)CO)C(=O)c2cccc(NC(=O)CCCCCC(=O)Nc3ccccc3N)c2O[C@H]1CN(C)S(C)(=O)=O | . | -3.1
2 | C[C@H](CO)N1C[C@H](C)[C@H](CN(C)S(=O)(=O)c2cccs2)Oc2c(NC(=O)CCCCCC(=O)Nc3ccccc3N)cccc2C1=O | 0.0 | 22.3*
3 | C[C@H]1CN([C@@H](C)CO)C(=O)c2cccc(NC(=O)CCCCCC(=O)Nc3ccccc3N)c2O[C@H]1CN(C)S(=O)(=O)c1cccs1 | -0.1 | 54.8*
4 | COc1ccc(C#Cc2cnc3c(c2)C(=O)N([C@@H](C)CO)C[C@@H](C)[C@@H](CN(C)C(C)=O)O3)cc1 | 0.6 | -0.6
5 | O=C1[C@@H](Oc2ccccc2)[C@@H](c2ccncc2)N1c1ccccc1 | . | 47.3*
6 | O=C1[C@@H](Oc2ccccc2)[C@@H](c2ccccc2)N1c1cccnc1 | 0.1 | -3.1
7 | C[C@@H]1CCCCO[C@H](CN(C)S(=O)(=O)c2cn(C)cn2)[C@H](C)CN([C@@H](C)CO)C(=O)c2cc(NC(=O)c3ccncc3)ccc2O1 | -0.1 | 3.6
8 | C[C@H]1CN([C@@H](C)CO)C(=O)c2cc(NC(=O)Nc3cccc4ccccc34)ccc2O[C@H]1CN(C)S(=O)(=O)c1ccc(F)cc1 | -0.1 | 2.3

item | Cneo AK release | Yeast UUG start
1 | . | .
2 | . | .
3 | . | .
4 | . | .
5 | -1.5 | -11.9
6 | -2.1 | -19.9
7 | 0.1 | -6.3
8 | 40.5 | -1.0

Remaining list, next part.
item | Structure | E-selectin induc | DENV2 CPE
9 | C[C@@H]1CCCCO[C@@H](CN(C)C(=O)CCCN(C)C)[C@@H](C)CN([C@H](C)CO)C(=O)c2cc(NC(=O)Cc3ccccc3)ccc2O1 | . | 141.9*
10 | C[C@@H]1CN([C@@H](C)CO)C(=O)c2cc(NC(=O)CCCN(C)C)ccc2O[C@@H](C)CCCCO[C@@H]1CN(C)C(=O)Cc1ccccc1 | -0.2 | 63.8*
11 | C[C@@H]1CCCCO[C@H](CN(C)C(=O)Cc2ccccc2)[C@H](C)CN([C@@H](C)CO)C(=O)c2cc(NC(=O)CCCN(C)C)ccc2O1 | 0.0 | 5.2
12 | C[C@H](CO)N1C[C@H](C)[C@H](CN(C)C(=O)CCCN(C)C)OCCCC[C@H](C)Oc2ccc(NC(=O)Nc3ccc(F)cc3)cc2C1=O | 0.8 | -8.9
13 | C[C@@H]1CCCCO[C@H](CN(C)C(=O)CCCN(C)C)[C@@H](C)CN([C@H](C)CO)C(=O)c2cc(NC(=O)Nc3ccc(F)cc3)ccc2O1 | 0.0 | 37.1*
14 | C[C@H]1CCCCO[C@@H](CN(C)C(=O)CCCN(C)C)[C@@H](C)CN([C@@H](C)CO)C(=O)c2cc(NC(=O)Cc3ccccc3)ccc2O1 | . | -1.8
15 | C[C@@H]1CCCCO[C@H](CN(C)C(=O)CCCN(C)C)[C@@H](C)CN([C@H](C)CO)C(=O)c2cc(NC(=O)Cc3ccccc3)ccc2O1 | . | -4.5
16 | COc1ccc2c3c(n(C)c2c1)[C@H](CO)N(C(=O)CN(C)C)CC31CCN(Cc2cccnc2)CC1 | 0.4 | 15.5

item | Cneo AK release | Yeast UUG start
9 | 103.8* | 29.9
10 | -6.5 | 30.2
11 | -2.0 | 0.3
12 | -2.1 | 7.0
13 | -1.3 | -7.1
14 | 2.5 | 7.2
15 | 115.6* | 32.2
16 | . | .

Further entries follow.
item | Structure | E-selectin induc | DENV2 CPE
17 | C[C@H]1CCCCO[C@H](CN(C)C(=O)CCCN(C)C)[C@@H](C)CN([C@@H](C)CO)C(=O)c2cc(NC(=O)c3ccccc3)ccc2O1 | 2.5 | 52.9*
18 | C[C@H](CO)N1C[C@H](C)[C@@H](CN(C)C(=O)CCCN(C)C)OCCCC[C@H](C)Oc2ccc(NC(=O)CCCN(C)C)cc2C1=O | . | 84.8*
19 | C[C@@H]1CN([C@@H](C)CO)C(=O)c2cc(NC(=O)c3ccccc3)ccc2O[C@@H](C)CCCCO[C@@H]1CN(C)C(=O)CCCN(C)C | 1.4 | -4.7
20 | C[C@H]1CN([C@@H](C)CO)S(=O)(=O)c2ccc(C3=CCCC3)cc2O[C@H]1CN(C)C(=O)c1cnccn1 | -0.3 | -3.2
21 | CCOC(=O)C1=C(C)NC(=O)C(C#N)C1c1ccncc1 (stereo not given) | . | 36.2*
22 | C[C@H](CO)N1C[C@H](C)[C@H](CN(C)S(=O)(=O)c2cn(C)cn2)Oc2ccc(NC(=O)CCCCCC(=O)Nc3ccccc3N)cc2CC1=O | . | 0.3
23 | C[C@@H]1CN([C@H](C)CO)C(=O)c2cc(NC(=O)Nc3cccc4ccccc34)ccc2O[C@@H](C)CCCCO[C@H]1CN(C)S(=O)(=O)c1ccccc1 | . | 9.0
24 | Cc1cccc(NCc2n[nH]c(=S)n2-c2ccccc2)c1 | 1.1 | 14.7

item | Cneo AK release | Yeast UUG start
17 | -0.9 | 2.2
18 | 51.4 | 15.2
19 | 5.8 | -0.5
20 | -3.2 | 6.5
21 | -4.5 | -21.3
22 | -6.2 | 3.9
23 | -3.9 | -13.0
24 | . | .

Additional records:
item | Structure | E-selectin induc | DENV2 CPE
25 | Cc1ccc(NCc2n[nH]c(=S)n2-c2ccccc2)cc1 | 30.3* | -3.3
26 | O=C(NC(c1ccc(Cl)cc1)c1cnccn1)C1CCN(Cc2ccc(Oc3ccccc3)cc2)CC1 (stereo not given) | 0.2 | 84.3*
27 | Cc1cccnc1C(NC(=O)C1CCN(CCCc2ccccc2)CC1)c1ccc(Cl)cc1 (stereo not given) | -0.1 | 20.2*
28 | COc1ccc(CN2CCC(C(=O)NC(c3ccc4c(c3)OCO4)c3ccccn3)CC2)cc1 (stereo not given) | . | 100.5*
29 | Cc1cccnc1C(NC(=O)C1CCN(Cc2ccc(Cl)cc2)CC1)c1ccccc1 (stereo not given) | . | 5.8
30 | CC(=O)N1CC2(C1)[C@@H](c1ccccc1)[C@@H](CO)N2C(=O)c1ccncc1 | -0.1 | 2.5
31 | Cc1ccc(S(N)(=O)=O)cc1 | . | 51.9*
32 | C[C@@H]1CN([C@H](C)CO)C(=O)Cc2cc(NC(=O)C3CC3)ccc2O[C@@H]1CN(C)CC1CC1 | -0.2 | 1.1

item | Cneo AK release | Yeast UUG start
25 | . | .
26 | 2.1 | -47.0
27 | 1.4 | -6.2
28 | 1.3 | -8.3
29 | -0.5 | -13.3
30 | . | .
31 | 1.9 | -12.9
32 | -3.6 | 1.6

The closing 4 compounds of the section above are carried over, then new ones follow:
item | Structure | E-selectin induc | DENV2 CPE
29 | Cc1cccnc1C(NC(=O)C1CCN(Cc2ccc(Cl)cc2)CC1)c1ccccc1 (stereo not given) | . | 5.8
30 | CC(=O)N1CC2(C1)[C@@H](c1ccccc1)[C@@H](CO)N2C(=O)c1ccncc1 | -0.1 | 2.5
31 | Cc1ccc(S(N)(=O)=O)cc1 | . | 51.9*
32 | C[C@@H]1CN([C@H](C)CO)C(=O)Cc2cc(NC(=O)C3CC3)ccc2O[C@@H]1CN(C)CC1CC1 | -0.2 | 1.1
33 | COc1cccc(NC(=S)N2CCC(Cc3ccccc3)CC2)c1 | -0.1 | 17.9
34 | COc1ccc(NC(=S)N2CCC(Cc3ccccc3)CC2)cc1OC | -0.1 | 7.9
35 | COc1ccc(-c2cn(CC[C@H]3CC[C@@H](NS(=O)(=O)c4ccccc4C)[C@@H](CO)O3)nn2)cc1 | -0.3 | 8.6
36 | COc1ccc(Cl)cc1-c1cc(C(=O)N[C@H](C)c2ccccc2)[nH]n1 | 0.4 | 73.7*
37 | COc1ccc(COC(=O)C2=C(C)NC(=O)NC2c2ccccc2F)cc1 (stereo not given) | -1.6 | 39.0*
38 | COc1ccc(COC(=O)C2=C(C)NC(=O)NC2c2ccccc2)cc1 (stereo not given) | 0.1 | 18.9
39 | C[C@]12CCC(=O)C[C@@H]1CC[C@@H]1[C@@H]2CC[C@]2(C)C=CC[C@@H]12 | 0.1 | -5.1
40 | C[C@]12CCC(=O)CC1CCC1C2CC[C@@]2(C)C1CC[C@@]21CCO1 (stereo not given in full) | 50.1* | -6.8
41 | O=C1NC(=O)c2cc(Br)cc3cccc1c23 | 203.6* | 1.6
42 | Cc1ccc(S(=O)(=O)N[C@H]2CC[C@@H](CC(=O)N3CCN(c4ccccc4)CC3)O[C@H]2CO)cc1 | -1.1 | 2.8
43 | COc1ccc(CNC(=O)C[C@@H]2C=C[C@@H](NS(=O)(=O)c3cccc(OC)c3)[C@H](CO)O2)cc1 | -0.4 | -1.6

item | Cneo AK release | Yeast UUG start
29 | -0.5 | -13.3
30 | . | .
31 | 1.9 | -12.9
32 | -3.6 | 1.6
33 | 116.6* | -26.1
34 | 3.3 | -39.2
35 | 2.9 | -9.3
36 | -2.7 | -25.4
37 | 1.7 | 1.0
38 | -2.5 | 3.6
39 | 0.4 | -11.9
40 | 0.5 | -11.3
41 | . | .
42 | 0.8 | 1.1
43 | -2.9 | -2.6
